These are literature values, as cited in patent publication US20190262453A1, “DESIGN AND COMPOSITION OF CELL-STABILIZED PHARMACEUTICAL FORMULATIONS” (THE REGENTS OF THE UNIVERSITY OF MICHIGAN, priority 2016, published 2019).

The conditions of this data set: in vivo; cited from earlier work.

Take `Cc1cc2c(s1)Nc1ccccc1N=C2N1CCN(C)CC1` [Olanzapine]: the Vd was 16.4 L/kg.
